# Antibody variant affinities, Ab-14 heavy chain, assay B

Target: peptide PDVDLGDISGINAS, taken from heptad repeat 2 (HR2) of SARS-CoV-2 spike.

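Phage display of a naive human antibody library on the peptide gave the parent. Designed CDR sequences, proposed from the first random library and measured here. Their group label is 14H_GPLM_Gen (GPLM: also part of the Gaussian process libraries; Gen: genetic algorithm; a sequence that several methods proposed may carry one label only). Affinity was read by AlphaSeq, a pooled yeast mating assay with surface-displayed partners. The frequency of each diploid, read from paired DNA barcodes, reflects how well the two displayed proteins bind. Each replicate has its own calibration line, from reference interactions of the BCL2 family. Mating was done six times.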

Each scFv is VH, the linker GGGGSGGGGSGGGGS, VL, as in the parent Ab-14, and differs from it in the CDRs of the heavy chain only.
VH: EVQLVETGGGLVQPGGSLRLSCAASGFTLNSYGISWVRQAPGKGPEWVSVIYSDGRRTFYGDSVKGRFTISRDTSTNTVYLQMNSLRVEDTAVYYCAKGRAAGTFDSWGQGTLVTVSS
VL: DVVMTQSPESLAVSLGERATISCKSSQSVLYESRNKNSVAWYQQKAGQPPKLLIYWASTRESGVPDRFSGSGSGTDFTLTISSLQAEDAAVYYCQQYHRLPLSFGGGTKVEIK

The parent's heavy chain CDRs are GFTLNSYGIS, VIYSDGRRTFYGDSVK, GRAAGTFDS; each variant's own CDRs replace them letter for letter. The read-out is the apparent dissociation constant on a log10 scale (nM): the lower, the stronger. Where no diploid with the target was found in that replicate, the entry reads "n.d.": below detection, most likely a poor binder, though not proof of it. In the paper, a design with two or fewer of six values counts as a poor binder. The parent sequence was in this pool as ten entries: three were never detected, three once, and four in most replicates, with averages from 0.34 to 2.37. Background: pairings of all heavy chain designs with three empty control strains gave a value in 1% of cases (median 2.08, 5th percentile 0.84). Values in that range, when seen in few replicates, are hard to tell from nonspecific mating. Also given: how often the same scFv was detected with the empty control strains, with their mean in brackets. A sequence measured in both rounds can read differently, since the two assays cover different ranges.

CDR-H1 | CDR-H2 | CDR-H3 | log10 Kd, replicates | empty controls
GFTLNDYGIS | VIYSDGRRTFYTDSVK | GKAAGTFDS | 0.45 / -0.42 / 0.54 / -0.19 / -0.05 / 0.00 | 0 of 18
GFHLNSYGIS | VIYSDGRRTFYKDSVK | GQTAGTFDS | n.d. / n.d. / n.d. / 0.40 / n.d. / n.d. | 0 of 18
GFQLNSYGIS | VIYSDGRRTFYADSVK | GQAAGTFDL | 1.62 / 0.33 / 1.52 / 0.88 / n.d. / n.d. | 0 of 18
GFSLNEYGIS | VIYSDGRRTFYCDSVK | GKAAGTFDS | 0.44 / 0.30 / 0.42 / 0.25 / 0.28 / 0.59 | 0 of 18
GFQLNSYGIS | VIYSDGRRTFYGDSVK | GRTAGTFDT | 0.42 / 0.51 / 0.33 / 0.44 / 0.06 / 0.44 | 0 of 18
GFTLNSYGIS | VIYSDGRRTFYIDSVK | GQAAGTFDL | n.d. / n.d. / n.d. / 1.63 / n.d. / n.d. | 1 of 18 (2.07)
GFSLNEYGIS | VIYSDGRRTFYDDSVK | GRTAGTFDS | 0.42 / -0.65 / -0.31 / -0.45 / 0.16 / -0.18 | 0 of 18
GFTLNEYGIS | VIYSDGRRTFYGDSVK | GRLAGTFDT | n.d. / 1.00 / 0.90 / 1.01 / 1.23 / 1.51 | 0 of 18
GFSLNEYGIS | VIYSDGRRTFYGDSVK | GQAAGTFDE | n.d. / n.d. / n.d. / n.d. / 1.78 / n.d. | 0 of 18
GFTLNSYGIS | VIYSDGRRTFYGDSVK | GHVAGTFDT | 1.67 / 1.22 / 0.66 / 1.44 / 1.29 / 1.24 | 0 of 18
GFTLNEYGIS | VIYSDGVRTFYGDSVK | GRTAGTFDS | -0.01 / 0.26 / -0.09 / -0.08 / -0.11 / 0.06 | 1 of 18 (3.41)
GFNLNSYGIS | VIYSDGRRTFYADSVK | GRIAGTFDS | 1.16 / 0.94 / 1.41 / 0.46 / 1.09 / 0.87 | 2 of 18 (2.04)
GFGLNSYGIS | VIYSDGRRTFYKDSVK | GQTAGTFDS | 1.08 / 0.61 / 0.72 / 0.83 / 1.05 / 0.63 | 0 of 18
KFTLNSYGIS | VIYADGRRTFYGDSVK | GQAAGTFDS | 1.51 / 1.72 / 1.42 / n.d. / 1.01 / 0.61 | 0 of 18
GFNLNSYGIS | VIYSDGRRTFYGDSVK | GQTAGTFDS | n.d. / n.d. / 0.60 / 0.18 / n.d. / n.d. | 0 of 18
GFDLNSYGIS | VIYSDGRRTFYVDSVK | GQAAGTFDS | -0.06 / 0.31 / -0.23 / -0.91 / -0.07 / 0.24 | 0 of 18
GFSLNSYGIS | VIYSDGRRTFYKDSVK | GKTAGTFDS | n.d. / 1.84 / 0.78 / 1.00 / 1.01 / 2.34 | 0 of 18
GFSLNSYGIS | VIYSDGRRTFYMDSVK | GRTAGTFDS | n.d. / n.d. / n.d. / n.d. / n.d. / n.d. | 0 of 18
GFSLNSYGIS | VIYSDGRRTFYSDSVK | GMAAGTFDS | 0.68 / -0.45 / -0.05 / -0.35 / 0.10 / 0.46 | 0 of 18
GFQLNSYGIS | VIYSDGRRTFYIDSVK | GRTAGTFDS | n.d. / 1.06 / 1.45 / n.d. / 0.44 / 3.58 | 0 of 18
GFTLNSYGIS | VIYSDGRRTFYGDSVK | GAEAGTFDT | n.d. / n.d. / n.d. / n.d. / n.d. / n.d. | 0 of 18
GFTLNSYGIS | VIYSDGKRTFYGDSVK | GQVAGTFDS | 1.22 / 1.15 / 1.29 / 0.91 / 0.85 / 1.07 | 1 of 18 (3.50)
GFSLNDYGIS | VIYSDGRRTMYGDSVK | GRTAGTFDS | -0.34 / -0.35 / 0.01 / -0.32 / -0.56 / 0.05 | 0 of 18
GFVLNSYGIS | VIYSDGRRTFYADSVK | GEAAGTFDS | 1.67 / 0.74 / 1.15 / 1.60 / 1.43 / 1.12 | 0 of 18
GFDLNSYGIS | VIYSDGRRTFYRDSVK | GKAAGTFDS | n.d. / n.d. / n.d. / n.d. / n.d. / n.d. | 0 of 18
GFSLNSYGIS | VIYSDGRRTFYGDSVK | GEAAGTFDH | -0.36 / 0.06 / -0.10 / 0.06 / -0.61 / 0.19 | 0 of 18
GFSLNTYGIS | VIYSDGRRTFYGDSVK | GEAAGTFDS | 0.66 / 0.22 / -0.05 / -0.24 / -0.51 / n.d. | 0 of 18
GFELNDYGIS | VIYSDGRRTFYSDSVK | GRTAGTFDS | -0.77 / -1.04 / -0.75 / -0.30 / -0.84 / 0.84 | 0 of 18
GFSLNSYGIS | VIYSDGRRTFYADSVK | GRTAGTFDS | -0.07 / 0.28 / 0.22 / -0.03 / 0.10 / 0.10 | 1 of 18 (2.24)
GFELNSYGIS | VIYADGRRTFYGDSVK | GFAAGTFDS | 0.37 / 0.05 / -0.16 / -0.13 / -0.02 / 0.48 | 0 of 18
GFDLNSYGIS | VIYSDGRRTFYSDSVK | GQAAGTFDS | 0.13 / 0.54 / 0.14 / 0.11 / 0.01 / 0.20 | 1 of 18 (1.44)
GFQLNEYGIS | VIYSDGRRTFYADSVK | GRTAGTFDS | -0.46 / -0.07 / -0.09 / -0.27 / -0.18 / 0.03 | 0 of 18
GFTLNEYGIS | VIYSDGRRTFYGDSVK | GNAAGTFDK | 0.31 / 0.46 / 0.25 / 0.05 / 0.72 / 0.80 | 0 of 18
GFTLNSYGIS | VIYSDGQRTFYGDSVK | GRTAGTFDS | 0.90 / 0.92 / n.d. / 1.39 / 1.97 / 0.96 | 0 of 18
GFSLNDYGIS | VIYSDGRRTFYGDSVK | GRTAGTFWS | 1.76 / n.d. / 2.08 / n.d. / n.d. / n.d. | 0 of 18
GFTLNEYGIS | VIYSDGRRTFYSDSVK | GRTAGTFDT | -0.36 / -0.21 / -0.01 / -0.32 / -0.17 / -0.13 | 0 of 18
GFELNSYGIS | VIYADGRRTFYGDSVK | GSAAGTFDS | n.d. / n.d. / 0.16 / 0.46 / n.d. / n.d. | 0 of 18
YFTLNSYGIS | VIYSDGRRTFYSDSVK | GEAAGTFDS | n.d. / n.d. / n.d. / n.d. / n.d. / n.d. | 0 of 18
KFSLNSYGIS | VIYSDGRRTFYADSVK | GREAGTFDS | 0.55 / 0.89 / 0.73 / 0.63 / 0.62 / 0.82 | 1 of 18 (2.95)
GFHLNSYGIS | VIYSDGRRTFYADSVK | GTAAGTFDS | 0.99 / 0.66 / 1.07 / 0.88 / 1.10 / 1.20 | 0 of 18
GYTLNEYGIS | VIYSDGRRTFYGDSVK | GRTAGTFDS | n.d. / 1.56 / 0.85 / n.d. / 1.81 / 2.53 | 0 of 18
GFTLNSYGIS | VIYSDGRRTFYADSVK | GEAAGTFDK | 1.12 / 0.14 / 0.43 / 0.64 / 0.03 / 0.61 | 0 of 18
GFTLNEYGIS | VIYSDGRRTFYGDSVK | GQTAGTFDK | -0.16 / -0.17 / -0.04 / 0.04 / -0.26 / 0.15 | 1 of 18 (2.16)
GFSLNSYGIS | VIYSDGRRTFYGDSVK | GITAGTFDT | 0.25 / -0.09 / -0.30 / -0.29 / -0.06 / 0.02 | 0 of 18
GFTLKSYGIS | VIYADGRRTFYGDSVK | GQAAGTFDS | 1.34 / 0.46 / 0.64 / 0.42 / 1.05 / 0.35 | 2 of 18 (1.61)
GFSLNEYGIS | VIYSDGRRTFYGDSVK | GKHAGTFDS | 0.24 / 0.27 / 0.34 / -0.17 / 0.08 / 0.05 | 0 of 18
GFSLNAYGIS | VIYSDGRRTFYGDSVK | GQAAGTFDS | 1.33 / 0.81 / 1.19 / 0.65 / 1.42 / 1.13 | 0 of 18
GFTLNDYGIS | VIYSDGRRTFYQDSVK | GRTAGTFDS | 1.17 / 1.67 / 1.97 / 1.76 / 0.63 / 1.53 | 0 of 18
GFSLNSYGIS | VIYSDGRRTFYADSVK | GQAAGTFDK | 0.94 / n.d. / -0.06 / 1.74 / 0.88 / n.d. | 0 of 18
GFSLNSYGIS | VIYSDGRRTFYADMVK | GNAAGTFDS | 0.25 / 1.67 / 0.59 / 0.88 / 0.59 / 1.11 | 1 of 18 (1.10)

The measurements come from Li et al. 2023 (doi:10.1038/s41467-023-39022-2) through the FLAb antibody collection.